Results on one compound are retold here after patent publication US4462992A, “Nitroimidazole radiosensitizers for hypoxic tumor cells and compositions thereof” (priority 1982, dated 1984).

For data set [1] the following is noted: British Journal of Cancer, 40:335 (1979); cited from earlier work.
A further data set is described as follows: in vivo. The settings on record: mouse, ip. As to the method: Neurotoxicity in mice was determined using mice of strain CDF1. This was carried out by (1) determining the LD50 of each compound in mice and (2) observing the animals for acute neurotoxic symptoms such as convulsions. The drugs were either solubilized or suspended in normal saline and administered intraperitoneally to groups of ten mice. […]

For data set [2], the system named is Chinese hamster cells line V-79. Nature of the data set: Radiosensitization (enhancement ratio, cobalt-60 irradiation of hypoxic cells). Type of data set: cell-based. The following applies: 1.0 mM. As to the method: Asynchronous monolayers of cultures of Chinese hamster cells line V-79 were employed in all experiments. The monolayers were derived from exponentially growing cultures. Methods of culturing and handling have been reported earlier by Cooke et al, Rad. Res. 65, 152 (1976). The plated cultures were rendered hypoxic in sealed dural containers capable of holding seven petri dishes, by purging with nitrogen (oxygen-free grade) for one hour. Irradiation was carried out by using a cobalt-60 source at a dose rate of approximately 240 rad/min according to the procedure described by Agrawal et al Rad. Res. 78:532 (1979). A dose of 1400 rad was given to hypoxic cells in glass petri dishes in the presence of a given drug concentration (2000 cells/dish). Cell survival was estimated from unirradiated toxic hypoxic cells exposed to the same drug concentration. Complete survival curves were obtained for each compound at the radiation doses of 400 to 3000 rad. The Do value was calculated for each compound and the ratio of the Do value for the hypoxic control cells to the Do value of the hypoxic drug treated cells provided the sensitized enhancement ratio of the corresponding agent.
Cultures were incubated for 6 days at 37° C. in an atmosphere of 5% CO2. The resulting colonies were fixed in absolute ethanol and stained with methylene blue and counted.

For `COCC(O)Cn1ccnc1[N+](=O)[O-]` (stereo not shown) [N, Misonidazole], in data set [1], the ratio brain/plasma is no less than 0.51 and the ratio tumor/plasma was 0.54. This compound gave an LD50 at 24 h in “in vivo” of 1400 to 1600 mg/kg. The “Radiosensitization (enhancement ratio in Chinese hamster cells)” value in data set [2] turned out to be 2.1.

One may read the LD50 as the dose expected to kill half of the subjects tested. Read a low LD50 as a more toxic substance.
